As a reminder, the pIC50 is the IC50 on a negative log10 scale, so that one unit is a factor of ten. A lower pIC50 goes with a high IC50.

Protein sequences, listed by entry. Tags and fused reporters are not part of them. Residues count along the entry.
UniProt P00742, 41-179 limits assumed: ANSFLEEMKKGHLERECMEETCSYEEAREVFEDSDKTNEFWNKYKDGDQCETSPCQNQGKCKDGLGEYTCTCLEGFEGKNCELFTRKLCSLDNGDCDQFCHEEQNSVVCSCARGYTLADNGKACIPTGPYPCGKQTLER
UniProt P00742, 235-488 limits assumed: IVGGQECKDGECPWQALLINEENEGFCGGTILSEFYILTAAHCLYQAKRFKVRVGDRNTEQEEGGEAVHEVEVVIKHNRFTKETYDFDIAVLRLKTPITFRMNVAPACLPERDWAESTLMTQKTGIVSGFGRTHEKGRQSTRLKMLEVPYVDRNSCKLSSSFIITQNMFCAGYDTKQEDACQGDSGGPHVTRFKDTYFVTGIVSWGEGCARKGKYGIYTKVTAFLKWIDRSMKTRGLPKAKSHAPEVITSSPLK

pIC50: −log10 of the molar value.

Experimental findings from ChEMBL document CHEMBL1135946, “Design, synthesis and biological activity of novel non-amidine factor Xa inhibitors. Part 1: P(1) structure-activity relationships of the substituted 1-(2-Naphthyl)-1H-pyrazole-5-carboxylamides” (Bioorg Med Chem Lett, 2002) are described below.

The assay concerns the target Coagulation factor X (Homo sapiens, UniProt P00742). As to the kind of experiment: Inhibitory activity against coagulation factor Xa.

Regarding `COc1ccc2cc(-n3nc(C)cc3C(=O)Nc3ccc(-c4ccccc4S(N)(=O)=O)cc3)ccc2c1`, the negative-log IC50 (pIC50) is 5.48.
